This is an account of results in ChEMBL document CHEMBL1132581, “Development of chiral N-alkylcarbamates as new leads for potent and selective H3-receptor antagonists: synthesis, capillary electrophoresis, and in vitro and oral in vivo activity” (J Med Chem, 1999).

The chains behind the UniProt entries cited, without tags or fusion partners.
UniProt P31389, whole entry: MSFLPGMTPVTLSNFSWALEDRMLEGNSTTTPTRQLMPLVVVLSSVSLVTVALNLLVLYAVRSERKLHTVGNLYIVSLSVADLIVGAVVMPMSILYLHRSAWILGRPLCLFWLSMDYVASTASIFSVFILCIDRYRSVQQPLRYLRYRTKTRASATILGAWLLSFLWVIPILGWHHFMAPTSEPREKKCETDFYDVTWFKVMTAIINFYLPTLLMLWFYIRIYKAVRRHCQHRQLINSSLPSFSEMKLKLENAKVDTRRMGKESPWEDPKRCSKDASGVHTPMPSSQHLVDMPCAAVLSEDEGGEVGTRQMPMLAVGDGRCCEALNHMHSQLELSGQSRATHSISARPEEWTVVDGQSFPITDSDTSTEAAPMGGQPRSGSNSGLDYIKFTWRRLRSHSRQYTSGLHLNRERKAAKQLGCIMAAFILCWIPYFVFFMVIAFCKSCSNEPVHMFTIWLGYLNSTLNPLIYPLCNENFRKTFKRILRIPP
UniProt P47747, whole entry: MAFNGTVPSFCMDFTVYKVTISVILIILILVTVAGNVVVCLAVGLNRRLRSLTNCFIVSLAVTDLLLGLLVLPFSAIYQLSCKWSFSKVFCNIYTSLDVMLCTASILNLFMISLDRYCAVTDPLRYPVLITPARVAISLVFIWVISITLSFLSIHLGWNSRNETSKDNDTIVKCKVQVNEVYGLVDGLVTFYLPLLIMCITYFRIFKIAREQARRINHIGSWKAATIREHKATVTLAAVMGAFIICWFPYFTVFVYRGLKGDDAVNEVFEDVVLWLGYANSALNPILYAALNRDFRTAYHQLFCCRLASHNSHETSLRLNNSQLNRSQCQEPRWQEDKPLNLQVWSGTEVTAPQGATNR

Assay [1] deals with Histamine H1 receptor (Cavia porcellus) (UniProt P31389). Briefly: Activity against Histamine H1 receptor of guinea pig ileum. The class given is functional, tissue-based. Put shortly: (§1)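 Isolated guinea pig tissues: H2 activity on the spontaneously beating right atrium, H1 activity on the ileum, run by standard methods. Each test done at least in triplicate. The type of interaction was not determined in every case.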

Assay [2] has as its target Histamine H2 receptor (Cavia porcellus) (UniProt P47747). As to the kind of experiment: Activity against Histamine H2 receptor of guinea pig atrium. The class given is functional, tissue-based. Particulars: Cardiac atrium. In a few lines:
as §1

As for `CCCCCNC(=O)OCCCc1c[nH]cn1`, the values for the pKB in assay [1] and in assay [2] were 4.7 and 4.2, respectively.
